# Laboratory results: PubChem BioAssay AID1508607 (The Scripps Research Institute Molecular Screening Center, 2020)
# Protein sequences, listed by entry. Tags and fused reporters are not part of them.
# UniProt Q8TDV5, whole entry: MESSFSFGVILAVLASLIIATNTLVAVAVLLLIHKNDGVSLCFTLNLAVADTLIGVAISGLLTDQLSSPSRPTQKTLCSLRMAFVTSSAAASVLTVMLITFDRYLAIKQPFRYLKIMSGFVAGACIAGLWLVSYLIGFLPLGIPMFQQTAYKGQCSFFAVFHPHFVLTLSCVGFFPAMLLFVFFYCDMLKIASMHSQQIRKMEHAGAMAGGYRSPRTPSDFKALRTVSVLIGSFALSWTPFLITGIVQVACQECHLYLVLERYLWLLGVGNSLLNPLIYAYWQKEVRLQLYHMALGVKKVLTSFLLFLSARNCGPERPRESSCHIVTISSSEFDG
# This is a selection; strong and weak results do not stand in their true shares. Calls of active or inactive are those of the source.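 How the source made its calls: active means mean percent activation across replicates above the counterscreen hit cutoff of 9.17%; inactive means the rest.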
# Biological target: Glucose-dependent insulinotropic receptor (Homo sapiens) (UniProt Q8TDV5)
# Test: off-target GPR119 activation – cell-based, PathHunter beta-arrestin, luminescence, set 2, counter-screen for GPR151 activator project, confirmation (AID 1508607);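 further: 0% = median of sample wells and 100% = wells given EA reagent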
# Conditions: GPR119 PathHunter beta-arrestin cells, 90 min, at 11.2 µM, hits give high values
row,Structure (SMILES),activation
1,CCCN1CCC(Nc2ccc(Cl)cc2)CC1,inactive: 2.51%
